Test: Exposure comparison of PG and phase-I and phase-II metabolites in dog and human plasma
Details: human and dog plasma after oral EC MEDI7219 tablets; samples through 8 h

| Substance | Exposure in circulation |
| --- | --- |
| propyl gallate-glutathione [PG-GSH] | very low exposure |
| gallic acid-glutathione [GA-GSH] | very low exposure |
